Laboratory results as given in ChEMBL document CHEMBL5726854, “EZH2 inhibitors” (2019).

Protein sequences, listed by entry. Tags and fused reporters are not part of them.
UniProt Q15910, whole entry: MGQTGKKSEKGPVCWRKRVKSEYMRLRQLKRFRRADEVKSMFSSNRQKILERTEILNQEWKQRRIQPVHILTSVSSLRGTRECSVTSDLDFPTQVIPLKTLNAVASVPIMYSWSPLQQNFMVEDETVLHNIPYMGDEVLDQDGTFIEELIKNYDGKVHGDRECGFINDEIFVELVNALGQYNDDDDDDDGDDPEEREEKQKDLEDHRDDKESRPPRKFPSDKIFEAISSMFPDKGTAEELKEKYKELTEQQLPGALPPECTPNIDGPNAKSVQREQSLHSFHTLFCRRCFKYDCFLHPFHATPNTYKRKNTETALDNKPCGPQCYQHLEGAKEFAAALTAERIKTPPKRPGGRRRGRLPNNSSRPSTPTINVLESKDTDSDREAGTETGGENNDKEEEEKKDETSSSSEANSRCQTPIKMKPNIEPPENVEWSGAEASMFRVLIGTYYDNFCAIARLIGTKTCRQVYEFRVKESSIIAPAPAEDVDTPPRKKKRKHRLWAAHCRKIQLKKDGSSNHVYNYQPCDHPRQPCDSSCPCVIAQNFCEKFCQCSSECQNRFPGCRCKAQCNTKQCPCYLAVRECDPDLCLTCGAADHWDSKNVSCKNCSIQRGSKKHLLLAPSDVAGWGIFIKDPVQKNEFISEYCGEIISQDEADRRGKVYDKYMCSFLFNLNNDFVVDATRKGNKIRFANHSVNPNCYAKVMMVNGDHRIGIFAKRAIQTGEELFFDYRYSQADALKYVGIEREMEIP

Target: Histone-lysine N-methyltransferase EZH2 (Homo sapiens, UniProt Q15910)
Assay: EZH2 enzymatic activity: Ten-point dose-response curves for a subset of compounds shown in Table 1 were determined using a Transcreener® EPIGEN Methyltransferase HTS assay using purified EZH2 enzyme (BellBrook Labs). In this assay, the S-adenosylhomocysteine (SAH) generated by the transfer of the methyl group from S-adenosyl methionine (SAM) to purified histone 3.3 protein by EZH2 is …

IC50 [nM] | Compound
1 | COC(c1cc(Cl)c2c(c1Cl)C(=O)N(Cc1c(=O)[nH]c(C)c3c1ccn3C)CC2)C1COC1 (stereo not drawn)
12 | COC(c1cc(Cl)c2c(c1Cl)C(=O)N(Cc1c(=O)[nH]c(C)c3ccoc13)CC2)C1CNC1 (stereo not drawn)
< 0.5 | Cc1[nH]c(=O)c(CN2CCc3c(Cl)cc(N4CC5(CCOCC5)C4)c(Cl)c3C2=O)c2c1NCC2
